Results published in US20180334447A1, “2,3,4,5-TETRAHYDROPYRIDIN-6-AMINE DERIVATIVES” (JANSSEN PHARMACEUTICA NV, priority 2015, published 2018).

By UniProt entry, the sequences of proteins in these tests, tags left out. Residues count along the entry.
UniProt P56817, 46-501 limits assumed: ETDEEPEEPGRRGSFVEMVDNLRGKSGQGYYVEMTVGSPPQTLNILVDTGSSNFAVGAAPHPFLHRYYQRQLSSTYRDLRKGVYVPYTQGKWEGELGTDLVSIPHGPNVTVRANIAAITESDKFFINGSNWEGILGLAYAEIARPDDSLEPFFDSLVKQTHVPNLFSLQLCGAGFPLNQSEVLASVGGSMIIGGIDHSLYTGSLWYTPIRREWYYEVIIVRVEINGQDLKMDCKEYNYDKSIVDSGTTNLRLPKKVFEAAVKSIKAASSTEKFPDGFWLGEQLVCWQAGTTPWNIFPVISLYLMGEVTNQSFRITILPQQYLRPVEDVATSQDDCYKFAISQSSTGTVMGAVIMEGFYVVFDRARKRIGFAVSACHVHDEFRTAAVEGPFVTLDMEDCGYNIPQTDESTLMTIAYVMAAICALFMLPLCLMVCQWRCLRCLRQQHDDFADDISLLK
UniProt Q9Y5Z0, 63-518 limits assumed: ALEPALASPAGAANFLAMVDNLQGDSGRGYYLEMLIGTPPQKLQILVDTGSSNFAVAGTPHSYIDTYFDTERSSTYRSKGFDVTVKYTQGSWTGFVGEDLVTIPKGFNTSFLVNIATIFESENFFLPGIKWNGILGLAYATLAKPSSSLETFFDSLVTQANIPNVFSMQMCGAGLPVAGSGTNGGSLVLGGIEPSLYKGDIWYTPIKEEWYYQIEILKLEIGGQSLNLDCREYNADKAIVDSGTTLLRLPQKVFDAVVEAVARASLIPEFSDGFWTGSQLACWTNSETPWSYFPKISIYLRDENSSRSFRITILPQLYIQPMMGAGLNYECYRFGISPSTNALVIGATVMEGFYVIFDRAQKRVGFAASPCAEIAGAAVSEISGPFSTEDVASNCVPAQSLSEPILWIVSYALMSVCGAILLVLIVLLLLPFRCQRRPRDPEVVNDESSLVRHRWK

How the values were obtained:
[1] = biological target: recombinant BACE1 protein (Homo sapiens, UniProt P56817); assay: BACE1 biochemical FRET based assay - Method 1; conditions: BACE1, 120 minutes at room temperature, pH 5.0
Text: (§1) This assay is a Fluorescence Resonance Energy Transfer Assay (FRET) based assay. The substrate for this assay is an APP derived 13 amino acids peptide that contains the ‘Swedish’ Lys-Met/Asn-Leu mutation of the amyloid precursor protein (APP) beta-secretase cleavage site. This substrate also contains two fluorophores: (7-methoxycoumarin-4-yl) acetic acid (Mca) is a fluorescent donor with excitation wavelength at 320 nm and emission at 405 nm and 2,4-Dinitrophenyl (Dnp) is a proprietary quencher acceptor. […] Upon cleavage by BACE1, the fluorophore Mca is separated from the quenching group Dnp, restoring the full fluorescence yield of the donor. The increase in fluorescence is linearly related to the rate of proteolysis.
Briefly in a 384-well format recombinant BACE1 protein in a final concentration of 1 μg/ml is incubated for 120 minutes at room temperature with 10 μm substrate in incubation buffer (40 mM Citrate buffer pH 5.0, 0.04% PEG, 4% DMSO) in the absence or presence of compound. Next the amount of proteolysis is directly measured by fluorescence measurement at T=0 and T=120 (excitation at 320 nm and emission at 405 nm). Results are expressed in RFU (Relative Fluorescence Units), as difference between T120 and T0.
(§2) A best-fit curve is fitted by a minimum sum of squares method to the plot of % Controlmin versus compound concentration. From this an IC50 value (inhibitory concentration causing 50% inhibition of activity) can be obtained.

[2] = test system: Abeta 1-42 produced and secreted into the medium of human neuroblastoma SKNBE2 cells; assay: Cellular αLisa assay in SKNBE2 cells, Abeta 42; conditions: SKNBE2 cells expressing hAPP695, incubated for 18 hours
Protocol: In two αLisa assays the levels of Abeta 1-42 produced and secreted into the medium of human neuroblastoma SKNBE2 cells are quantified. The assay is based on the human neuroblastoma SKNBE2 expressing the wild type Amyloid Precursor Protein (hAPP695). The compounds are diluted and added to these cells, incubated for 18 hours and then measurements of Abeta 1-42 are taken. Abeta 1-42 are measured by sandwich αLisa. αLisa is a sandwich assay using biotinylated antibody AbN/25 attached to streptavidin coated beads and antibody cAb42/26 conjugated acceptor beads for the detection of Abeta 1-42 respectively. In the presence of Abeta 1-42, the beads come into close proximity. The excitation of the donor beads provokes the release of singlet oxygen molecules that trigger a cascade of energy transfer in the acceptor beads, resulting in light emission. Light emission is measured after 1 hour incubation (excitation at […] and emission at 615 nm).
as §2

[3] = biological target: recombinant BACE2 protein (Homo sapiens, UniProt Q9Y5Z0); assay: BACE2 biochemical FRET based assay; conditions: BACE2, 450 minutes at room temperature, pH 5.0
Text: as §1, with “assay” for “assay is an APP derived 13 amino acids peptide that”, “the beta-secretase,” for “BACE1,”
Briefly in a 384-well format recombinant BACE2 protein in a final concentration of 0.4 μg/ml is incubated for 450 minutes at room temperature with 10 μM substrate in incubation buffer (50 mM Citrate buffer pH 5.0, 0.05% PEG, no DMSO) in the absence or presence of compound. Next the amount of proteolysis is directly measured by fluorescence measurement at T=0 and T=450 (excitation at 320 nm and emission at 405 nm). Results are expressed in RFU (Relative Fluorescence Units), as difference between T450 and T0.
as §2

| Biochemical FRET based assay - Method 1 pIC50 [1] | Cellular αLisa assay in SKNBE2 cells Abeta 42 pIC50 [2] | Biochemical FRET based assay pIC50 [3] | SMILES |
| --- | --- | --- | --- |
| 6.48 | 6.6 | 5.14 | CO[C@@H]1C[C@](C)(S(C)(=O)=O)C(N)=N[C@]1(C)c1cc(NC(=O)c2cnc(OCF)cn2)ccc1F |
| 7.3 | 6.89 | 7.53 | CC[C@@]1(S(C)(=O)=O)CC[C@@](CF)(c2cc(NC(=O)c3ccc(F)cn3)ccc2F)N=C1N |
| 6.77 | 7.09 | 5.72 | CO[C@H]1C[C@](C)(C#N)C(N)=N[C@]1(C)c1cc(NC(=O)c2cnc(OCF)cn2)ccc1F |

| SMILES | Biochemical FRET based assay - Method 1 pIC50 [1] | Cellular αLisa assay in SKNBE2 cells Abeta 42 pIC50 [2] | Biochemical FRET based assay pIC50 [3] |
| --- | --- | --- | --- |
| COc1cnc(C(=O)Nc2ccc(F)c([C@]3(CF)CCC(C)(C#N)C(N)=N3)c2)cn1 (stereo partly drawn) | 7.29 | 7.25 | 6.27 |
